Measurements published in patent publication US20240058311A1, “USE OF SMO INHIBITOR IN PREPARATION OF DRUG FOR PREVENTING, DELAYING OR A[…] STENOSIS OF ART[…]” (JINAN UNIVERSITY, priority 2022, published 2024).

Test system: HUVECs
Settings: 10 μM

Question: `CC1=C2C[C@H]3[C@@H](CC=C4C[C@@H](O)CC[C@@]43C)[C@@H]2CC[C@]12O[C@@H]1C[C@H](C)CN[C@H]1[C@H]2C` [Cyc, Cyclopamine] was tested. Which “cell viability of HUVECs” value (HG culture conditions, vs HG alone (FIG. 6A)) did it give?
Answer: significantly restore

Question: What about the “increasing the cell viability of HUVECs treated with high glucose” value (compared with Vis and Gla at the same dosage (FIG. 5B)) of the same compound?
Answer: best effect
